Laboratory results reported in patent US20060247311A1, “Methods for treating lower urinary tract disorders using alpha2delta subunit calcium channel modulators with smooth muscle modulators” (priority 2003, published 2006).

Details: female, rat, in vivo, iv, 3 mg/kg

AUC0-∞: 20477 ng·min/mL
SMILES: CCN(CC)CC#CCOC(=O)C(O)(c1ccccc1)C1CCCCC1 (stereo not shown) [oxybutynin, 4-diethylaminio-2-butynyl phenylcyclohexyglycolate]
